# Ab-14 light chain CDR variants: yeast mating affinities

Reference: Engelhart et al. 2022, doi:10.1038/s41597-022-01779-4. File: FLAb, binding data.

Binding partner: SARS-CoV-2 spike HR2 peptide, sequence PDVDLGDISGINAS.

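The starting antibody came from a phage panning campaign against this peptide. The library (AAYL50) carries one to three amino acid substitutions per variant, with no insertions or deletions. The scFvs were displayed on barcoded MATa yeast, the peptide on MATalpha yeast. Mating (16 h, 30 °C) was followed by selection of diploids and sequencing of their barcodes. Scores were corrected for input abundance and mapped to Kd with protein pairs of known affinity run in the same pool. Mating was done three times.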

Each scFv is VH, a (GGGGS)3 linker, VL, as in the parent Ab-14, and differs from it in the CDRs of the light chain only.
VH: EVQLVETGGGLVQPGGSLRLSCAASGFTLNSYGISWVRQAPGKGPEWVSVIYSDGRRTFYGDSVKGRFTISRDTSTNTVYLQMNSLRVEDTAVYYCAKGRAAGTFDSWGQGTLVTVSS
VL: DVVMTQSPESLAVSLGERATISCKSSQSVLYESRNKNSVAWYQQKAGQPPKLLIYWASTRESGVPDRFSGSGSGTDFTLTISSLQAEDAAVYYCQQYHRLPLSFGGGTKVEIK

Variants are written as CDR1, CDR2 and CDR3 of the light chain (limits as in the source). Parent: KSSQSVLYESRNKNSVA, WASTRES, QQYHRLPLS. Affinities are written as log10 Kd with Kd in nM; a lower number is a better binder. Averages over replicates are reported, and they cover detected replicates only. "ND" means that the variant was in the library but no mating with the target was seen in that replicate; the authors take this as a sign of poor binding, and no number exists. Nonspecific signal, from three strains lacking the peptide, appeared in 18% of pairings of library AAYL50, centred on 4.19 (5% of these signals below 2.99); values are not corrected for it. For reference, the parent read 0.65 as the reference entry and 1.68 as a member of this library.

"log10 Kd, replicates",mean log10 Kd (nM),CDR-L1,CDR-L2,CDR-L3
ND / ND / ND,ND,CYSQSVLYESRNKNSVA,WASTRES,QPYHRLPLS
1.44 / 1.57 / 1.72,1.58,KSSQSVLYESPNSNSVA,WASTRES,QQYHHLPLS
ND / ND / ND,ND,KSSQSVLYESRNKNSVY,HASTRES,QFYHRLPLS
1.45 / 1.82 / 1.80,1.69,KSSQSVLYESRNWNSVA,WASCRGS,QQYHRLPLS
0.63 / 0.79 / 0.76,0.73,KSSQSVLYESRNINNVA,WASTRES,QQYHRLPLL
ND / ND / ND,ND,KSSQSVLYESRNKNSLA,WASTRYS,QWYHRLPLS
0.97 / 1.16 / 0.86,1.00,KSSQGVLYESRNKNSVA,WSSTREE,QQYHRLPLS
3.68 / 2.98 / ND,3.33,KSSQSVLYESRNKNSVA,WASTHES,QQEHRLGLS
ND / ND / 3.20,3.20,KSSQPVLYESRNKNSVA,WASTGES,QQYRRLPLS
ND / ND / 4.15,4.15,KVSQSVLYESRNKNSVC,WPSTRES,QQYHRLPLS
ND / ND / ND,ND,KSSQSVLYESRNKHSVA,WMSTRES,QQYHRLVLS
5.44 / 3.63 / ND,4.54,KSSQSVLYESRNKNSVA,WASDRES,DQIHRLPLS
5.21 / 4.38 / ND,4.80,KSSQSVLYEIRNKNSVA,WAAVRES,QQYHRLPLS
0.40 / 0.59 / 0.50,0.49,KVSQSVLNESRNKNSVA,WASTRES,QQYHRLPFS
ND / 3.42 / ND,3.42,KSSQSVLYEFRNKNSVA,WASTRES,QQNHRIPLS
5.41 / 4.63 / 4.94,4.99,KSSQSVLYESRDYNSVA,WASTNES,QQYHRLPLS
0.40 / 0.70 / 0.60,0.57,KSSQSVLYESRNKNSIA,HASTREV,QQYHRLPLS
1.68 / 2.24 / 2.14,2.02,KSSQSVLYESRNKNSVA,WASTREY,QAYDRLPLS
ND / 5.23 / 3.97,4.60,KSSQSVLYESRNKNSVA,WESTRES,QQAWRLPLS
1.23 / 1.32 / 1.19,1.25,KSSQSVQYEDRNKNSVA,WARTRES,QQYHRLPLS
1.14 / 1.28 / 1.43,1.28,KHSQLVLYESRNKNSVA,WASTRES,QQYHRLPLS
4.35 / 4.61 / 5.04,4.67,KSSQSVLYESRNKNGVA,WASTRNS,QQYHRLPLV
ND / ND / ND,ND,KSSQSVLYESREKNSVA,WMSTRES,QQYHRLQLS
ND / ND / ND,ND,KSSQSVLYESRNKNSFA,TASTRES,QQYHRLPLS
0.69 / 0.83 / 0.81,0.78,KSSQSNLYASMNKNSVA,WASTRES,QQYHRLPLS
1.29 / 1.40 / 1.41,1.37,KSSQSVLQESRNKNSVA,WASTREF,QNYHRLPLS
3.43 / 2.20 / 2.86,2.83,KSSQSVLYEERNKNSVA,WASTRRS,QQYHRLPLS
1.10 / 1.62 / 1.15,1.29,KSSQSVLYESRNKNSVA,WASTRFM,YQYHRLPLS
5.43 / 4.57 / ND,5.00,KSSQSVLYESRFKSSVA,WASTRES,QLYHRLPLS
1.37 / 1.28 / 1.72,1.46,KSSQSVLYEFRNSNSVA,WASTRES,QQYHRLPLS
5.21 / 4.35 / 4.13,4.56,KSSQSGLYESRNKNSVA,IASTRES,QQYKRLPLS
ND / ND / ND,ND,KSSQSVLYESRNKNSVF,WHSTRES,QQYKRLPLS
0.67 / 0.72 / 0.78,0.72,KSSQSVLYESANKNSVA,WASTRES,QQYPRLELS
ND / ND / ND,ND,MSSQSVLYESRNRNSVA,WASTRES,QQYHRLPLC
1.75 / 1.44 / 1.62,1.60,YSSKSVLYESRNKNSVA,WASTRES,QQYHTLPLS
4.25 / ND / ND,4.25,KSSQSVLYGSRNKNSVA,WASTRDS,QQYHRSPLS